Reference: PMC11252418, “Specific glycine-dependent enzyme motion determines the potency of conformation selective inhibitors of threonyl-tRNA synthetase” (Communications Biology, 2024)
pKd: −log10 of the molar value. “And” between values parts separate entries of the source, which are not always exact repeats. Equal entries are not always repeated.

By UniProt entry, the sequences of proteins in these tests, tags left out. Residues count along the entry.
UniProt P0A8M3, 242-642 G463S limits assumed: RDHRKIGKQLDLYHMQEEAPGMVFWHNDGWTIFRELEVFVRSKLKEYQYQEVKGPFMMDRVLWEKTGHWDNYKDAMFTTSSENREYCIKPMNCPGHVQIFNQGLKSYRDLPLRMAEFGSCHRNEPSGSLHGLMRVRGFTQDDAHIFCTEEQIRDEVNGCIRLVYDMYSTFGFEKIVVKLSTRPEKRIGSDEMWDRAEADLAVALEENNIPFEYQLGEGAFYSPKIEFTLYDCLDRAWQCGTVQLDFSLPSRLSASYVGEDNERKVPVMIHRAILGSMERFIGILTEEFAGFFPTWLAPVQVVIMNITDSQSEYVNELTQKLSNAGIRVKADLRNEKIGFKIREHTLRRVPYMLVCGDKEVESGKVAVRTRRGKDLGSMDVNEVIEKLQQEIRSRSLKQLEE
UniProt P0A8M3, 242-642 G463S/Q484A limits assumed: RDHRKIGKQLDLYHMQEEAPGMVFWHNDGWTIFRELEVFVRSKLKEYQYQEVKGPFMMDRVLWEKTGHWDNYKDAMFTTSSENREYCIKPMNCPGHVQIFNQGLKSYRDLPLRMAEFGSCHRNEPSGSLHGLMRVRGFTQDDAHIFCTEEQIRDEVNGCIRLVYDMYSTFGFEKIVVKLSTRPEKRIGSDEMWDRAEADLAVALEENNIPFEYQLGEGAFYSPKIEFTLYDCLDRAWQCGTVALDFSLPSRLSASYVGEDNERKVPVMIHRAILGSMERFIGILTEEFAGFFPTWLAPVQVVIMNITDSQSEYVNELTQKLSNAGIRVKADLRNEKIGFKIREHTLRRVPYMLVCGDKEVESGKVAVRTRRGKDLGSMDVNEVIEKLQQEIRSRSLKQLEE
UniProt P0A8M3, 242-642 G463A limits assumed: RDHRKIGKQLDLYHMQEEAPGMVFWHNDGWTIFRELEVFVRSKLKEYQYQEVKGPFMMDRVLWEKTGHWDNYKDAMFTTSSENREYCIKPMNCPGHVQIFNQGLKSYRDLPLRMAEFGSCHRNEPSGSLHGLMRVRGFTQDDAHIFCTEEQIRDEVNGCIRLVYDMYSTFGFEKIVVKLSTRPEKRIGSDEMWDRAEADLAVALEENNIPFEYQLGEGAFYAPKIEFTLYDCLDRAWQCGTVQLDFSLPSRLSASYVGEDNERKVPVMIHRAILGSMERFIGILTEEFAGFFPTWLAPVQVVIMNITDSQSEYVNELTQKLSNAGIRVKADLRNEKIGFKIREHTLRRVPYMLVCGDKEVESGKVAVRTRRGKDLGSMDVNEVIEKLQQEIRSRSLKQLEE
UniProt P0A8M3, 242-642 A316N limits assumed: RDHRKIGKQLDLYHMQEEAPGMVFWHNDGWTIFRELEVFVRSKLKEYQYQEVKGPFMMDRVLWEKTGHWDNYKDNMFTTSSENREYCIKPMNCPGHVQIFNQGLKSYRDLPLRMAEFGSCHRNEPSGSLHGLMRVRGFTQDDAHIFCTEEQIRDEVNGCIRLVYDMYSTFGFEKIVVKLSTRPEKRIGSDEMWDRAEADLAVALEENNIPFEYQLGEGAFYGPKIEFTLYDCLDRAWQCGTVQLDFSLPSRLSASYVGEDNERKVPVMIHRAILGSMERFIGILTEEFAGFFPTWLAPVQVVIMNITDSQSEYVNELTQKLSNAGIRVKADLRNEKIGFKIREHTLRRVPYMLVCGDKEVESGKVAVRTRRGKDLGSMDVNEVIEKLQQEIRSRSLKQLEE
UniProt P0A8M3, 242-642 limits assumed: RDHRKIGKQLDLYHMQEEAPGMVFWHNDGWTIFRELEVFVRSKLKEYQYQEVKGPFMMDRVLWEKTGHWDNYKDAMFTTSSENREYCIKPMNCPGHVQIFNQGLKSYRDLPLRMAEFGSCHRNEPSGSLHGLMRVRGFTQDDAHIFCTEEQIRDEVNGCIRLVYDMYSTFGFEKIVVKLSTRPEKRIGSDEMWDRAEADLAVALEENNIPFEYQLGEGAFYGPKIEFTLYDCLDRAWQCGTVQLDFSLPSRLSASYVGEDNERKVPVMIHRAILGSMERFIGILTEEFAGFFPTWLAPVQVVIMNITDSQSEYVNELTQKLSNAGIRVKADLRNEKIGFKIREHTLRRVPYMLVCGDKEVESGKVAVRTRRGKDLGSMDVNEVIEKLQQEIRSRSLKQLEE
UniProt P0A8M3, 242-642 L489M limits assumed: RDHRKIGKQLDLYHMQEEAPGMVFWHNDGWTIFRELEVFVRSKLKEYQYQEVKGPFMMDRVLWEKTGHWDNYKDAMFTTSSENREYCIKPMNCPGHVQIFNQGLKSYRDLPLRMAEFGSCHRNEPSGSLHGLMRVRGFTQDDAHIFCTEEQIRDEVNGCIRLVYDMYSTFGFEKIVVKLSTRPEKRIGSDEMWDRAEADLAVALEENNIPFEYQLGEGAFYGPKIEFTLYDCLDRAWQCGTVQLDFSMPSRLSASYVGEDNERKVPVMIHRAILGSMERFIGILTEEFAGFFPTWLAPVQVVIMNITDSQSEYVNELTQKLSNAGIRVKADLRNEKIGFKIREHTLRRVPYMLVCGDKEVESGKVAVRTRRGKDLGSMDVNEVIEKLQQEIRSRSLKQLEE

Legend:
EcThrRS_G463S_Q484A [1] = target: T1, EcThrRS_G463S_Q484A (Escherichia coli, UniProt P0A8M3, G463S/Q484A)
EcThrRS_WT [2] = target: T2, EcThrRS_WT (Escherichia coli, UniProt P0A8M3)
EcThrRS_G463A [3] = target: T3, EcThrRS_G463A (Escherichia coli, UniProt P0A8M3, G463A)
EcThrRS_WT [4] = target: T2, EcThrRS_WT; remark: listed apart in the source
EcThrRS_G463S_Q484A [5] = target: T1, EcThrRS_G463S_Q484A; assay: Thermal shift assay (TSA); format: binding
EcThrRS_G463A [6] = target: T3, EcThrRS_G463A; assay: Thermal shift assay (TSA); format: binding; conditions: source data sheet Fig.5a, ThrRS_G463A
EcThrRS_G463S [7] = target: T4, EcThrRS_G463S (Escherichia coli, UniProt P0A8M3, G463S); assay: Thermal shift assay (TSA); format: binding
EcThrRS_L489M = EcThrRS_L489M (Escherichia coli, UniProt P0A8M3, L489M); assay: Thermal shift assay (TSA); format: binding; conditions: 2 μM protein, 20 μM compound, mean n = 4
EcThrRS_A316N = EcThrRS_A316N (Escherichia coli, UniProt P0A8M3, A316N); assay: Thermal shift assay (TSA); format: binding; conditions: source data sheet Fig.S4a, ThrRS_A316N
EcThrRS_G463S [8] = target: T4, EcThrRS_G463S
[9] = 2 μM protein, 20 μM compound, mean n = 4

`C[C@@H](O)[C@H](N)C(=O)NC(CNC(=O)CCn1cnc2cc(Cl)c(Cl)cc2c1=O)c1cccc(-c2ccc3c(c2)CNC3=O)c1` (stereo partly drawn) was tested, and the pKd (EcThrRS_G463S_Q484A [1]) was 7.72, the ΔTm (increase of Tm) (EcThrRS_WT [2]) was 29.4 °C and 30.5 °C and the pKd (EcThrRS_G463A [3]) was 7.71. For the same compound, the pKd (EcThrRS_WT [4]) was 8.14, the “ΔTm (increase of Tm)” value (EcThrRS_G463S_Q484A [5]; [9]) was 27.6 °C and the ΔTm, single replicates (EcThrRS_G463S_Q484A [5]; source data sheet Fig.3c, ThrRS_G463S_Q484A) was 27.6 °C and 27.5 °C (2×) and 27.8 °C. For the same compound, the ΔTm, single replicates (EcThrRS_G463A [6]) was 21.6 °C (2×) and 21.7 °C and 22.8 °C, the “ΔTm (increase of Tm)” value (EcThrRS_G463S [7]; [9]) was 22.1 °C and the ΔTm, single replicates (EcThrRS_G463S [7]; source data sheet Fig.2a, ThrRS_G463S) was 21.9 °C and 22.1 °C (2×) and 22.2 °C. The “ΔTm (increase of Tm)” value (EcThrRS_L489M) was 22.7 °C, the ΔTm, single replicates (EcThrRS_A316N) was 32 °C and 31.3 °C and 31.4 °C (2×) and the pKd (EcThrRS_G463S [8]) was 8.08.
